Where “and” joins values, the source holds several entries; their conditions need not be identical. Equal entries are not always repeated. The entries are a selection whose mix differs from that of the whole data set. Calls of active or inactive are those of the source. Calls come from the whole dose curve; as a rule, active = well fitted activation curve with a large enough effect; inconclusive = small, poorly fitted or top-dose-only effect; inactive = no such curve, though single readings can be large or run the other way.

This assay in a line: qHTS Assay for Compounds that Induce Erasure of Genomic Imprints.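 Note: 0% = negative control wells on the plate.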 The settings on record: mouse ES Peg3-LacZ reporter, beta-gal luminescence, 40 h; at 60.7 µM (top of the series). For orientation: Quantitative high-throughput screening tests each substance at several concentrations.
With `O=[N+]([O-])C(Cl)(Cl)Cl`, the activity change, positive = activation was inactive: 4.17%.

Turning to `CN(CCCl)CCCl`, the activity change, positive = activation was inactive: -59% and inactive: -47.9%.

(Values after PubChem BioAssay AID1948 (National Center for Advancing Translational Sciences (NCATS), 2009).)
